Measurements: US8889677B2, “Substituted triazoles useful as mGlu5 receptor modulators” (Boehringer Ingellheim International GmbH, priority 2012, dated 2014)
pEC50: −log10 of the molar value.

Sequences of proteins named here, by UniProt entry; tags and fusion partners are left off. Residues count along the entry.
UniProt P41594, 21-1212 limits assumed: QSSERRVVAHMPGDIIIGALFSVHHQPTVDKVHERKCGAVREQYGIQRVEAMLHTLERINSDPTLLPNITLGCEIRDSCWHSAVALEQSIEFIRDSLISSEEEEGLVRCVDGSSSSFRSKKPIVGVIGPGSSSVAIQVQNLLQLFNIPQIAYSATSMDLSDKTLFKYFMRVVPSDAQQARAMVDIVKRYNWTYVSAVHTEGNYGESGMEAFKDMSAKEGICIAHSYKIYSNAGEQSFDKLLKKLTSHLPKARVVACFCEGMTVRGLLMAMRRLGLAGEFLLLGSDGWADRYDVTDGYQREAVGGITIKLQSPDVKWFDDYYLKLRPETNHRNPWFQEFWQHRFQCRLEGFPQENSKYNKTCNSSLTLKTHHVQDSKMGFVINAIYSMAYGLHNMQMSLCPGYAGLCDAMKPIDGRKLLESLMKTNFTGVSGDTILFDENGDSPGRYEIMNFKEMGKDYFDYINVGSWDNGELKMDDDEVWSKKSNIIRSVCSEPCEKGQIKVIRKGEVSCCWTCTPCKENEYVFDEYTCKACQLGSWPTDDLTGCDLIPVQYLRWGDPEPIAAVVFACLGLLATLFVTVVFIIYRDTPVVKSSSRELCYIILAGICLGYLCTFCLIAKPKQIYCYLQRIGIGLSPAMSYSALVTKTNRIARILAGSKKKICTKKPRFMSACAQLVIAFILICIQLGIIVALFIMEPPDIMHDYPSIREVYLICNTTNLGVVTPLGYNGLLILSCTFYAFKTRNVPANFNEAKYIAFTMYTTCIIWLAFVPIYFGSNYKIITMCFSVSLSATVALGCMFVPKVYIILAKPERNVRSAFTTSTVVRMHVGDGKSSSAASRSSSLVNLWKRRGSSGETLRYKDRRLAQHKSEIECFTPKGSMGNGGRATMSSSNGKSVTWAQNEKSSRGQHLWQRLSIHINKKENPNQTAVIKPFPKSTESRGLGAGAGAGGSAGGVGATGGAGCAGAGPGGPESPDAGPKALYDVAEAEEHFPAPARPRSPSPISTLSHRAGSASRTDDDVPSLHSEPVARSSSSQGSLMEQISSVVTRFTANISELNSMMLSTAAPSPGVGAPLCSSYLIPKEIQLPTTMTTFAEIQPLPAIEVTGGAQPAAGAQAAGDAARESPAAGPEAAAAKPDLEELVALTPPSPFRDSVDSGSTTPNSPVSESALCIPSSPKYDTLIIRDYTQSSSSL

Target: human recombinant mGluR5 (Homo sapiens, UniProt P41594)
Experiment: positive modulation of mGluR5, calcium based FLIPR assay in HEK 293 cells
Settings: HEK 293 cell line expressing human recombinant mGluR5; EC50 of the modulation of the glutamate response (glutamate approx. 5% basal stimulation); peak height of Ca release fluorescence signal
Experimental: The positive modulation of mGluR5 is measured in a HEK 293 cell line expressing human recombinant mGluR5 and is detected with calcium based FLIPR assay. The cells are cultured with DMEM supplemented with 10% FCS, 2 μg/mL tetracycline, 100 μg/mL hygromycin and 500 μg/mL gneticin. The cell culture media is exchanged for tetracycline-free cell culture media 3-7 days before the assay. One day before the assay the cell culture medium is exchanged to DMEM without glutamine and phenol red and supplemented with 10% FCS, 100 μg/mL hygromycin and 500 μg/mL geneticin. On the assay day, the medium of the subconfluent cultures is removed and the cells are detached by addition of 2.5 ml EDTA (0.02%) per 175 cm2 culture flask for 1 minute. […]
20 μl of each compound solution are then transferred to the assay plate and the Ca2+ kinetic is measured to determine any intrinsic compound activity. After 5 min incubation in the FLIPR device, the second stimulation with 20 μl of glutamate in Ringer solution (glutamate concentration adjusted to approximately 5% basal stimulation of the maximal possible glutamate effect) is added and the kinetic Ca2+ response of the wells was measured for the modulation effect.
The peak height of the Ca release related fluorescence signal (9-66) is used for the EC50. The EC50 of the modulation is calculated over a nonlinear regression with GraphPad Prism (Table 1).

COc1cc(-c2nc(-c3ccc(F)cc3)nn2CC(=O)N2CCN(c3ccccn3)CC2)ccc1F
pEC50: 6.17
